Values quoted from earlier work as cited in patent US20070224637A1, “Oxidative protection of lipid layer biosensors” (priority 2006, published 2007).

Sodium thiosulfate
Solubility In water: Yes
